In patent US8242166B2, “C(10) ethyl ester and C(10) cyclopropyl ester substituted taxanes” (Florida State University Research Foundation, Inc., priority 2008, dated 2012):
Read-outs that look alike come from different tables or passages of the source.

Assays:
[1] = system: human MSTO-211H mesothelioma xenograft; test: MSTO-211H xenograft study 101 (Example 30); conditions: for activity: 18926 20 mg/kg, 18365 25 mg/kg i.v. q4d×4, study ongoing
Sprague-Dawley rats = conditions: rat, in vivo
[2] = system: human MSTO-211H mesothelioma xenograft; assay type: in vivo; conditions: 30 mg/kg IV Q4D × 4
MSTO-211H = test: MTT cytotoxicity (IC50), MSTO-211H; assay type: cell-based; conditions: Homo sapiens
Method: Compound 17932 was tested in four of these cell lines, while the remaining compounds were tested in all of these cell lines. All cell lines were maintained in RPMI-1640 tissue culture medium (TCM, supplemented with antibiotics and 10% fetal bovine serum) and cultured at 37° C. in humidified air containing 5% CO2. To assess the antiproliferative effects of the test compounds, 172 μL of tumor cell suspension (1.45×10^4 cells/ml) were added to each well of a 96-well plate and incubated for 24 h at 37° C. in 5% CO2 in air to allow cells to adhere. Seven 2-fold drug dilutions in TCM/DMSO were performed in triplicate in separate 96-well plates and 28 μL was transferred to the wells containing tumor cells (200 μL final volume/0.1% DMSO). Plates were incubated for 72 h and cell viability was determined by adding 50 μL of warm TCM containing 5 mg/mL MTT (3-[4,5-dimethylthiazol-2-yl]-2,5-diphenyltetrazolium bromide) to each well and incubating for 1 h at 37° C. Plates were processed and the absorbances of the resulting solutions were measured by a plate reader at 570 nm. […] (GraphPad Prism version 4.00 for Windows). Studies were conducted by Taxolog, Inc., Tallahassee, Fla.

[3] = system: human MSTO-211H mesothelioma xenograft; test: MSTO-211H xenograft study 004 (Example 28)
[4] = system: human MSTO-211H mesothelioma xenograft; test: MSTO-211H xenograft study 008 (Example 29)
[5] = MTT, 72 h, read-out: IN Vitro IC50 (nm) MSTO
[6] = Resistance MRP2/BCRP1, read-out: MSTO Mesothelioma (Table 4, quantity not named; IC50 values as Table 2)

SMILES | activity [1] | Day 18 ALT, points toward toxicity score (Sprague-Dawley rats) | Day 18 BUN, points toward toxicity score (Sprague-Dawley rats) | Day 18 PLT, points toward toxicity score (Sprague-Dawley rats) | Day 24 BW (recovery), points toward toxicity score (Sprague-Dawley rats) | Day 24 PLT (recovery), points toward toxicity score (Sprague-Dawley rats) | Dia B/M, points toward toxicity score (Sprague-Dawley rats) | Dia L/W, points toward toxicity score (Sprague-Dawley rats) | Neuro Tox, points toward toxicity score (Sprague-Dawley rats) | Score AVE (Sprague-Dawley rats) | IC50 (MSTO-211H; [5]) | IC50 (MSTO-211H; [6]) | also measured
CC(=O)O[C@@]12CO[C@@H]1C[C@H](O)[C@@]1(C)C(=O)[C@H](OC(=O)C3CC3)C3=C(C)[C@@H](OC(=O)[C@H](O)[C@@H](NC(=O)OC4CCC4)c4cccs4)C[C@@](O)([C@@H](OC(=O)c4ccccc4)C12)C3(C)C (stereo partly drawn) [Compound 18365] | significant regression | 20 (key: 0: ALT elevation ≧2 × cont; ALT elevation ≧1.5 × cont; 10: ALT elevation ≧1.25 × cont; 20: ALT elevation <1.25 × cont) | 20 (key: 0: BUN elevation ≧2 × cont; BUN elevation ≧1.5 × cont; 10: BUN elevation ≧1.25 × cont; 20: BUN elevation <1.25 × cont) | 20 (key: 0: Platelets decrease ≧75%; Platelets decrease ≧50%; 10: Platelets decrease ≧25%; 20: Platelets decrease <25%) | 0 | 0 | 5 | 5 | −10 (key: Neurotoxicity N (0); −10: Neurotoxicity Y (1-4)) | 8.1 | 0.7 nM | 0.7 nM | TR ([1]; 25 mg/kg i.v. q4d×4, five mice): 1; Day 18 AST, points toward toxicity score (Sprague-Dawley rats): 20 (key: 0: AST elevation ≧2 × cont.; AST elevation ≧1.5 × cont; 10: AST elevation ≧1.25 × cont; 20: AST elevation <1.25 × cont); Day 22 BW, points toward toxicity score (Sprague-Dawley rats): 20 (key: Body Weight Loss ≧20%; Body Weight Loss ≧15%; Body Weight Loss ≧10%; 20: Body Weight Loss <10%); Day 24 WBC (recovery), points toward toxicity score (Sprague-Dawley rats): 0; activity [2]: very active in this study with tumor regressions
CCC(=O)O[C@H]1C(=O)[C@@]2(C)C([C@H](OC(=O)c3ccccc3)[C@]3(O)C[C@H](OC(=O)[C@H](O)[C@@H](NC(=O)OC4CCCC4)c4cccs4)C(C)=C1C3(C)C)[C@]1(OC(C)=O)CO[C@@H]1C[C@@H]2O (stereo partly drawn) [Compound 18926] | significant regression | 20 (key: 0: ALT elevation ≧2 × cont; ALT elevation ≧1.5 × cont; 10: ALT elevation ≧1.25 × cont; 20: ALT elevation <1.25 × cont) | 20 (key: 0: BUN elevation ≧2 × cont; BUN elevation ≧1.5 × cont; 10: BUN elevation ≧1.25 × cont; 20: BUN elevation <1.25 × cont) | 20 (key: 0: Platelets decrease ≧75%; Platelets decrease ≧50%; 10: Platelets decrease ≧25%; 20: Platelets decrease <25%) | 0 | – | 5 | – | −10 (key: Neurotoxicity N (0); −10: Neurotoxicity Y (1-4)) | – | 0.4 nM | 0.4 nM | tumor nadir size (mean) ([3]; 25 mg/kg i.v. q4d×4): 32 mg; tumor regression over the initial tumor weight of 222 mg ([3]; 25 mg/kg i.v. q4d×4): 85%
CCC(=O)O[C@H]1C(=O)[C@@]2(C)C([C@H](OC(=O)c3ccccc3)[C@]3(O)C[C@H](OC(=O)[C@H](O)[C@@H](NC(=O)OC4CCC4)c4cccs4)C(C)=C1C3(C)C)[C@]1(OC(C)=O)CO[C@@H]1C[C@@H]2O (stereo partly drawn) [Compound 19244] | – | – | – | 20 (key: 0: Platelets decrease ≧75%; Platelets decrease ≧50%; 10: Platelets decrease ≧25%; 20: Platelets decrease <25%) | 0 | 0 | 5 | 5 | −10 (key: Neurotoxicity N (0); −10: Neurotoxicity Y (1-4)) | 6.3 | 0.6 nM | 0.6 nM | tumor nadir size (mean) ([4]; 30 mg/kg i.v. q4d×4): 51 mg; tumor regression over the initial tumor weight of 220 mg ([4]; 30 mg/kg i.v. q4d×4): 77%
CC(=O)O[C@@]12CO[C@@H]1C[C@H](O)[C@@]1(C)C(=O)[C@H](O)C3=C(C)[C@@H](OC(=O)[C@H](O)[C@@H](NC(=O)OC(C)(C)C)c4ccccc4)C[C@@](O)([C@@H](OC(=O)c4ccccc4)[C@H]21)C3(C)C [Docetaxel, docetaxel, reference compound] | – | – | – | – | – | – | – | – | – | – | 4 nM | 4 nM | maximum weight loss ([3]; 25 mg/kg qwk×3): 31%; regressions ([3]; 25 mg/kg qwk×3): did not produce any regressions; maximum weight loss ([4]; 25 mg/kg qwk×3): 24%; regressions ([4]; 25 mg/kg qwk×3): did not produce any regressions
